Test results as given in EP1115693B9, “SUBSTITUTED POLYCYCLIC ARYL AND HETEROARYL $i([sequence])-HETEROALKYLAMINES USEFUL FOR INHIBITING CHOLESTERYL ESTER [sequence] PROTEIN ACTIVITY” (Monsanto Company, priority 1998, dated 2000).

By UniProt entry, the sequences of proteins in these tests, tags left out. Residues count along the entry.
UniProt P11597, 18-493 limits assumed: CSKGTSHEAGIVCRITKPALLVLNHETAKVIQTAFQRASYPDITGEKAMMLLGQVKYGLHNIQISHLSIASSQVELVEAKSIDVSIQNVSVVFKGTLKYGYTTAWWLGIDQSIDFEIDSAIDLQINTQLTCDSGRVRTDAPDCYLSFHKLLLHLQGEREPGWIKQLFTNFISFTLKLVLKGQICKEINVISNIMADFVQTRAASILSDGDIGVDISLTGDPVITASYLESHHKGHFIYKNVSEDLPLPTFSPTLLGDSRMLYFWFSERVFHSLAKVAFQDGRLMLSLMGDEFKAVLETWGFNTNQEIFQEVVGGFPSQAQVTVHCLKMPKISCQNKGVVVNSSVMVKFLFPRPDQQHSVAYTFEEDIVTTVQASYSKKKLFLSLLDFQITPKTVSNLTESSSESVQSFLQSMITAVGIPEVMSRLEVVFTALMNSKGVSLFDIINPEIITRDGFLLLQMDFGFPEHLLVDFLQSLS

target: Human recombinant CETP (Homo sapiens, UniProt P11597); assay: Assay of CETP inhibition using purified components (reconstituted buffer assay): transfer of [3H]CE from HDL to LDL; type: biochemical; details: 2 hours at 37°C

SMILES	IC50 [µM]
OC(CN(Cc1cccc(OC(F)(F)C(F)F)c1)c1cccc(Oc2ccccn2)c1)C(F)(F)F (stereo not drawn)	> 100
OC(CN(Cc1cccc(Oc2cccc(C(F)(F)F)c2)c1)c1cccc(OC(F)(F)F)c1)C(F)(F)F (stereo not drawn)	15
OC(CN(Cc1cc2c(cc1Cl)OCO2)c1cccc(OC(F)(F)F)c1)C(F)(F)F (stereo not drawn)	100
COc1ccc(Oc2cccc(CN(CC(O)C(F)(F)F)c3cccc(OC(F)(F)F)c3)c2)cc1 (stereo not drawn)	90

Continued, values first:

IC50 [µM]	SMILES
14	CC(C)Oc1cccc(CN(CC(O)COC(F)(F)C(F)F)c2cccc(Oc3ccccc3)c2)c1 (stereo not drawn)
15	OC(CN(Cc1cccc(Br)c1)Cc1cccc(OC(F)(F)F)c1)C(F)(F)F (single isomer, unassigned)
